Protein sequences, listed by entry. Tags and fused reporters are not part of them.
UniProt Q06187, whole entry: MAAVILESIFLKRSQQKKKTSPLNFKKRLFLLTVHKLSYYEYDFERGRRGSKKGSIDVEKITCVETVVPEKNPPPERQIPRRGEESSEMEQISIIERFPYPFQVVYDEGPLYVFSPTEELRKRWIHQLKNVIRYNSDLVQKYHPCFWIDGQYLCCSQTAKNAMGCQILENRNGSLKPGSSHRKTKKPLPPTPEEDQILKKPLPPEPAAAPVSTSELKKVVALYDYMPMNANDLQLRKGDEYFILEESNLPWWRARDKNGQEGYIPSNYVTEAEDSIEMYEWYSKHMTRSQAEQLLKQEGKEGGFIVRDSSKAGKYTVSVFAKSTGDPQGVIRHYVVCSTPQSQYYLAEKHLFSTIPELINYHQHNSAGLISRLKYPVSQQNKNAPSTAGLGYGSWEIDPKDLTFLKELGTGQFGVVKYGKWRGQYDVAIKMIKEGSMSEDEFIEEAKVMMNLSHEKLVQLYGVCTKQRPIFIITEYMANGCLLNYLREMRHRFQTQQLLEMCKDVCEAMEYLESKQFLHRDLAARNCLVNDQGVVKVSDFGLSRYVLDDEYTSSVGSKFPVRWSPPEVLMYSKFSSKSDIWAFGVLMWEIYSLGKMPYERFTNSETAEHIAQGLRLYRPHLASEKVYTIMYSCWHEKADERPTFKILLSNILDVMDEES

In patent US12637467B2, “Inhibitor of BTK and mutants thereof” (Newave Pharmaceutical Inc., priority 2019, dated 2026):

Molecular target: WT BTK (Homo sapiens, UniProt Q06187)
Experiment: In vitro dialysis assay (irreversibility assay), WT BTK
Assay type: biochemical
Settings: for Recovery after 24 h dialysis: 0.003 mM compound pre-incubated with 2 nM BTK for 2 hr, dialyzed 24 hr against buffer with 40 mM ATP, BTK activity vs non-dialyzed samples; for Conclusion (WT BTK): reversible or irreversible inhibition after 24 hr dialysis

Recovery after 24 h dialysis | Conclusion (WT BTK) | SMILES | Recovery after 24 h dialysis (tested form: HCl) | Conclusion (WT BTK) (tested form: HCl)
~1% | Irreversible/covalent inhibition | C=CC(=O)Nc1cc(Nc2nc(-c3ccnc(N4CCn5c(cc6c5CC(C)(C)C6)C4=O)c3CO)cn(C)c2=O)ccc1N1CCN(C2C[C@@H](C)O[C@@H](C)C2)C[C@@H]1C (stereo partly shown) | – | –
– | – | C=CC(=O)Nc1cc(Nc2nc(-c3ccnc(N4CCn5c(cc6c5CC(C)(C)C6)C4=O)c3CO)cn(C)c2=O)ccc1N1CCN(C2CCO[C@H](C)C2)C[C@@H]1C (stereo partly shown) | ~1% | Irreversible/covalent inhibition
